What was measured:
[1] = organism: Mus musculus; test: Protective index, ratio of TD50 for albino Carworth Farms No.1 mouse to ED50 for albino Carworth Farms No.1 mouse by 6Hz minimal clonic seizure test; format: functional
Method in brief: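 Mouse 6 Hz (32 mA) quantification, compound given i.p. at the time of peak effect. Groups of at least eight mice at varied doses.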

[2] = organism: Rattus norvegicus; test: Protective index, ratio of TD50 for albino Sprague-Dawley rat to ED50 for albino Sprague-Dawley rat by maximal electroshock-induced seizure test; format: functional
[3] = Neurotoxicity in ip dosed albino Carworth Farms No.1 mouse assessed as motor impairment after 0.25 hrs by rotarod test; format: toxicity, organism-based; conditions: Carworth Farms No.1 (albino), in vivo
Method in brief: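 Mouse quantification at the time of peak effect, compound given i.p. in 0.5% methylcellulose. Groups of at least eight mice received varied doses until at least two points fell between 100 and 0% response. PI = TD50/ED50 MES.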

Row | SMILES | Ratio TD50/ED50 [1] | Ratio TD50/ED50 [2] | TD50 at 0.25 h [3] [mg/kg]
1 | CC[C@@H](C(N)=O)N1CCCC1=O | >25.8 | – | –
2 | CCC1(c2ccccc2)C(=O)NC(=O)NC1=O [PHENOBARBITAL] | – | 6.7 | 69

Source: ChEMBL document CHEMBL1909525, “Synthesis and anticonvulsant activity of novel 2,6-diketopiperazine derivatives. Part 1: perhydropyrrole[1,2-a]pyrazines” (Eur J Med Chem, 2011)
